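Step 1: Grow cells in 96-well plates. Step 2: Expose to compound for 48 hours at 5 concentrations. Step 3: Interpolate endpoints linearly; if unreached, use highest concentration. The concentration for full growth arrest is given as TGI.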
System: NCI-H23 lung
Assay: NCI-60 cell line screen, 48 h

O=C(NC(=O)c1cn(C2OC(CO)C(O)C2O)c(=O)[nH]c1=O)OCc1ccccc1 (stereo unspecified)
TGI: > 100 µM
